Binding of CDR-mutated scFvs to a peptide of the spike HR2 region

Reference: Engelhart et al. 2022, doi:10.1038/s41597-022-01779-4. File: FLAb, binding data.

Target: peptide PDVDLGDISGINAS, taken from heptad repeat 2 (HR2) of SARS-CoV-2 spike.

Parent: Ab-14, a human scFv built as VH, three GGGGS repeats, VL. Only the CDRs of the heavy chain vary.
VH: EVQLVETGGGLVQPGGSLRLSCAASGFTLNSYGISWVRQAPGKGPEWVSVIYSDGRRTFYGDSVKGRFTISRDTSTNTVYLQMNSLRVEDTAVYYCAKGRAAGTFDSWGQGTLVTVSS
VL: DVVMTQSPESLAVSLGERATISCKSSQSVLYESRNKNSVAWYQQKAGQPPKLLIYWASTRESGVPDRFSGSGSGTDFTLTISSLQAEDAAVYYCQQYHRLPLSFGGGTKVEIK

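The starting antibody came from a phage panning campaign against this peptide. Library AAYL49 holds single substitutions and randomly drawn double and triple substitutions in the CDRs. In AlphaSeq, yeast of one mating type display the scFv and yeast of the other type display the target. Mating (16 h, 30 °C) was followed by selection of diploids and sequencing of their barcodes. Read counts were normalised to the haploid input and turned into Kd by a linear fit to BCL2-family pairs of known affinity, for each replicate. Each pool was mated in three replicate cultures.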

The parent's heavy chain CDRs are GFTLNSYGIS, VIYSDGRRTFYGDSVK, GRAAGTFDS; each variant's own CDRs replace them letter for letter.
Numbers give log10(Kd / nM), so 0 is 1 nM and 3 is 1 µM. Smaller is tighter.
"nd" means that the variant was in the library but no mating with the target was seen in that replicate; the authors take this as a sign of poor binding, and no number exists.
Nonspecific signal, from three strains lacking the peptide, appeared in 15% of pairings of library AAYL49, centred on 4.06 (5% of these signals below 2.83); values are not corrected for it. Also given: how often the same scFv was detected with the empty control strains, with their mean in brackets.

CDR-H1 | CDR-H2 | CDR-H3 | log10 Kd (nM) by replicate | empty controls
GITLASYGIS | VIYSDVRRTFYGDSVK | GRAAGTFDS | 4.12 / nd / nd | 4 of 9 (4.55)
GFTLNSYGSS | LIYSDGRRIFYGDSVK | GRAAGTFDS | nd / 4.71 / nd | 3 of 9 (3.72)
GFTLNSYPES | VIPSDGRRTFYGDSVK | GRAAGTFDS | nd / nd / nd | 1 of 9 (1.78)
GFTLNSYGIS | VAYSDGRRTFYGDSVK | GRAAGRFDS | nd / nd / nd | 0 of 9
RFTDNSYGIS | VIYSDGRRTFYGDSVK | GRAAYTFDS | 4.40 / nd / nd | 3 of 9 (4.52)
GFTHNSYGIS | KIYSDGRRTFWGDSVK | GRAAGTFDS | nd / nd / nd | 0 of 9
GFTLNSYGIS | VIYSDGRRTGYGDSVK | GRAAGTFDS | 1.47 / 1.84 / 1.77 | 0 of 9
GFTLNSYGIS | VIYSDGRQTFYGRSVK | GRAAGTPDS | nd / nd / nd | 2 of 9 (3.90)
GFTLNSYGIS | VIYSDGRRTFAGDNVK | GRAAGTFDF | 3.69 / 2.42 / 2.43 | 1 of 9 (3.76)
GFTLNSYGIS | VIYSDRRRTFYKDSVK | GRAAGGFDS | nd / 5.25 / 3.95 | 5 of 9 (4.21)
GFTLNSYGIS | PIMSDGRRTFYGDSVK | GRAHGTFDS | 3.66 / 4.04 / nd | 2 of 9 (4.51)
GFRLNSYGIS | VIMSDYRRTFYGDSVK | GRAAGTFDS | nd / 3.84 / 4.60 | 2 of 9 (3.82)
GFTLNSYGIS | VIYSDGRRTFYGDSVK | GRAGGTQDS | nd / nd / nd | 1 of 9 (2.71)
GFTNNSYGIS | VIYSDGRRTNYGDSEK | GRAAGTFDS | nd / nd / nd | 2 of 9 (4.13)
GFTLNLYGIS | VIYYDGRRTFYGLSVK | GRAAGTFDS | nd / nd / nd | 0 of 9
GFTLNSYGIY | VIYDDGRRTFYGDSVK | GRAAGTFDS | 4.29 / nd / nd | 2 of 9 (4.15)
GFTLNSYGIS | VIYSDGRRTFYGDDVK | GRPFGTFDS | nd / 2.95 / nd | 1 of 9 (4.43)
GFTLVSYGIS | VIASDGRRTFYGDSEK | GRAAGTFDS | nd / nd / nd | 1 of 9 (3.23)
GFTQNSYGWS | VIYSDGRRTFYGDSVK | GRAAGTFDE | nd / 4.14 / 4.09 | 1 of 9 (4.26)
GFTLNSYGTS | VIYSDGRRTFYGDSWK | GRKAGTFDS | nd / nd / nd | 1 of 9 (3.64)
GFTLNSYGIS | VIFSDGRRTFYGDSVK | GRAAGTFTD | 1.63 / 1.70 / 1.74 | 3 of 9 (3.58)
GFTLNSSGIS | VIYSDGRRTFYGDSIK | GRAAGTHDS | nd / nd / nd | 0 of 9
GFTLNSYGAS | VIYSDGRRTFYGSSVK | GRAAGTFDH | nd / nd / nd | 3 of 9 (3.90)
GFTLNSYGIS | VIYSDSRRVFYGDSVK | GQAAGTFDS | nd / nd / nd | 0 of 9
GFTLNSYGIS | VIYSDGRRTFYSDSVS | GRAHGTFDS | nd / 3.69 / nd | 0 of 9
GFTLCSYGIS | VIYSKGRRTFYGDSVK | GRAAGFFDS | nd / nd / 3.77 | 0 of 9
GFTLNSYGIS | VIQSDGMRHFYGDSVK | GRAAGTFDS | nd / nd / 3.40 | 0 of 9
GFTSASYGIS | VIYSDGPRTFYGDSVK | GRAAGTFDS | nd / nd / nd | 1 of 9 (2.95)
GFTLNSYGIS | VGYSYGRRTFYGDSVK | GRAAGTFDL | nd / nd / nd | 0 of 9
GFTLNSYGIS | VIYSDPRRTFYGDSVI | WRAAGTFDS | 5.11 / nd / nd | 0 of 9
GFTLDSYGIS | VIYSDGRRTFYGDFVK | WRAAGTFDS | nd / nd / 4.52 | 2 of 9 (3.55)
GFTLNSYGID | VIYSDGRRTFYGDSVK | GRAFGTFDS | nd / 2.99 / nd | 1 of 9 (2.92)

Picked from the list: the 3 lowest averages where every replicate gave a value.

{"CDR-H1": "GFTLNSYGIS", "CDR-H2": "VIFSDGRRTFYGDSVK", "CDR-H3": "GRAAGTFTD", "log10 Kd (nM) by replicate": "1.63 / 1.70 / 1.74", "empty controls": "3 of 9 (3.58)"}
{"CDR-H1": "GFTLNSYGIS", "CDR-H2": "VIYSDGRRTGYGDSVK", "CDR-H3": "GRAAGTFDS", "log10 Kd (nM) by replicate": "1.47 / 1.84 / 1.77", "empty controls": "0 of 9"}
{"CDR-H1": "GFTLNSYGIS", "CDR-H2": "VIYSDGRRTFAGDNVK", "CDR-H3": "GRAAGTFDF", "log10 Kd (nM) by replicate": "3.69 / 2.42 / 2.43", "empty controls": "1 of 9 (3.76)"}